# In patent US4789630A, “Ionic compounds containing the cationic meriquinone of a benzidine” (Cetus Corporation, priority 1986, dated 1988):
# What was measured:
# [1] = pH 5
# [2] = Procedure: Stock HRP solutions were prepared in 0.10M NaCl, 1.0 mM Na phosphate, pH 6.0 to be 22 ng/ml or 0.43 ng/ml in HRP, shortly before assay, HRP-catalyzed oxidation of TMB by H2 O2 was initiated by adding 20 or 2.0 μl of […] or 20 or 10 μl of 0.43 ng/ml HRP to 1.00 ml of the assay solution at 25° C. […] At the end of each reaction interval, replicate 100 μl volumes of reaction mixture were spotted on a Nuclepore polycarbonate filter (3 μm pore size) and dried by gentle suction to give deposits 3-4 mm in diameter.
# The initial velocity was transformed from units of absorbance per time to reciprocal time (turnover number) by dividing by the meriquinone extinction coefficient, 3.9×10^4 M^-1 cm^-1, and by the HRP concentration. […] The transition time is the time to crystal nucleation.
substance,measurement,setting,value
Fumarate,Solubility Ratio: 25.2 C/0.0 C,[1],5.6
same,Molar Solubility in 0.1 M Anion,"[1]; sodium acetate, 10% ethanol",7 × 10^-9 Molar
same,stability of blue deposits on filter,[2],stable during standing for over a week at room temperature
